The assay deals with α-glucosidase from Saccharomyces cerevisiae (Saccharomyces cerevisiae, UniProt P53341). The assay is described as follows: Inhibitory activity assay for yeast α-glucosidase (pNPG substrate). In kind it is biochemical. How it is done:
The inhibitory activity of α-glucosidase from Saccharomyces cerevisiae (Sigma-Aldrich, Tokyo, Japan) of the isolation compounds was determined using a previously reported procedure with modifications. p-Nitrophenyl α-glucopyranoside (pNPG) (Sigma-Aldrich, Tokyo, Japan) was used as a substrate. Other chemicals used were of analytical grade. […] Then, 40 µL of 3 mM pNPG solution was added, and the mixture was incubated at 37 °C for 20 min. The reaction was stopped by adding a solution of Na2CO3 (0.1 M, 200 µL), and the absorbance (at 405 nm) of the resulting solution was measured via an Epoch microplate reader (Biotech, Tokyo, Japan). All experiments were performed in three independent replicates. The inhibition of isolated compounds on α-glucosidase was calculated as follows:(2) Inhibition (%)=(1−A1/A0)×100 where A0 is the absorbance of the control, and A1 is the absorbance of the propolis samples. The IC50 values were determined as the half-maximal inhibitory concentration of the inhibitor (isolated compound) which provides 50% inhibition.

Chains of the proteins cited; added tags and fusions are not shown. Lines headed by an entry give the natural chain unless they say otherwise; changes in a name come on top.
UniProt P53341: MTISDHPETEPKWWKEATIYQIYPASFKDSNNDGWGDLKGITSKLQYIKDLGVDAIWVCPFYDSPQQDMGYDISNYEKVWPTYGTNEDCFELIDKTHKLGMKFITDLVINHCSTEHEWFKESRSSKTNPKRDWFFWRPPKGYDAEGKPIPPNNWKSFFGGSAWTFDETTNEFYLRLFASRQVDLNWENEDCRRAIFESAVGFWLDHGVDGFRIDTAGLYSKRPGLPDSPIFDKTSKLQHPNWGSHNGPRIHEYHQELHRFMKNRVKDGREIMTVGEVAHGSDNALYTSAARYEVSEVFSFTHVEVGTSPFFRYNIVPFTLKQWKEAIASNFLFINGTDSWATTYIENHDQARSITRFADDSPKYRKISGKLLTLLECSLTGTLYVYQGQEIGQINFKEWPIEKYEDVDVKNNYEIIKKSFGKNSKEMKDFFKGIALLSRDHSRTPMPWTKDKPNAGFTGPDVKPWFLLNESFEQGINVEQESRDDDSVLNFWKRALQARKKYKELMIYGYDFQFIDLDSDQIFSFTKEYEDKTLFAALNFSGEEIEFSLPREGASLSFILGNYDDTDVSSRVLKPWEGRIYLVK

`OCC(CO)N[C@H]1C[C@](O)(CO)[C@@H](O)[C@H](O)[C@H]1O` [Voglibose]: the “inhibitory activity against α-glucosidase from the yeast (S. cerevisiae), in words” value is “no activity at all”.
